Results from US11633459B2, “GIP derivatives and uses thereof” (priority 2018, dated 2023).

test: Pharmacokinetic study in minipigs, terminal half-life after i.v. administration; conditions: female, Göttingen, minipig, plasma, iv, 5 nmol/kg

Row | Structure (SMILES) | half-life [h]
1 | CCCC[C@H](NC(=O)[C@H](C)NC(=O)[C@@H](NC(=O)[C@H](CO)NC(=O)[C@H](Cc1ccc(O)cc1)NC(=O)[C@H](CC(=O)O)NC(=O)[C@H](CO)NC(=O)[C@@H](NC(=O)[C@H](Cc1ccccc1)NC(=O)[C@@H](NC(=O)CNC(=O)[C@H](CCC(=O)O)NC(=O)C(C)(C)NC(=O)[C@@H](Cc1ccc(O)cc1)NC(C)=O)[C@@H](C)O)[C@@H](C)CC)[C@@H](C)CC)C(=O)N[C@@H](CC(=O)O)C(=O)N[C@@H](CCCCN)C(=O)N[C@H](C(=O)N[C@@H](CCCNC(=N)N)C(=O)N[C@@H](CCC(N)=O)C(=O)N[C@@H](CCC(N)=O)C(=O)N[C@@H](CC(=O)O)C(=O)N[C@@H](Cc1ccccc1)C(=O)N[C@H](C(=O)N[C@@H](CCCCNC(=O)CC[C@H](NC(=O)CC[C@H](NC(=O)CC[C@H](NC(=O)C1CCC(CNC(=O)CCCCCCCCCCCCCCCCCCC(=O)O)CC1)C(=O)O)C(=O)O)C(=O)O)C(=O)N[C@@H](Cc1c[nH]c2ccccc12)C(=O)N[C@@H](CC(C)C)C(=O)N[C@@H](CC(C)C)C(=O)N[C@@H](C)C(=O)N[C@@H](CCC(N)=O)C(=O)N[C@@H](CCCCN)C(=O)NCC(=O)O)C(C)C)[C@@H](C)CC (stereo partly drawn) [Compound 6, N{1}-acetyl,N{Epsilon-24}-[(4S)-4-carboxy-4-[[(4S)-4-carboxy-4-[[(4S)-4-carboxy-4-[[4-[(19-carboxynonadecanoylamino)methyl]cyclohexanecarbonyl]amino]butanoyl]amino]butanoyl]amino]butanoyl]-[D-Tyr1,Aib2,Nle14,Arg18,Lys24]-hGIP(1-31)] | 125
2 | CCCC[C@H](NC(=O)[C@H](C)NC(=O)[C@@H](NC(=O)[C@H](CO)NC(=O)[C@H](Cc1ccc(O)cc1)NC(=O)[C@H](CC(=O)O)NC(=O)[C@H](CO)NC(=O)[C@@H](NC(=O)[C@H](Cc1ccccc1)NC(=O)[C@@H](NC(=O)CNC(=O)[C@H](CCC(=O)O)NC(=O)[C@H](C)NC(=O)[C@@H](Cc1ccc(O)cc1)NC(C)=O)[C@@H](C)O)[C@@H](C)CC)[C@@H](C)CC)C(=O)N[C@@H](CC(=O)O)C(=O)N[C@@H](CCCCN)C(=O)N[C@H](C(=O)N[C@@H](Cc1c[nH]cn1)C(=O)N[C@@H](CCC(N)=O)C(=O)NC(C)(C)C(=O)N[C@@H](CC(=O)O)C(=O)N[C@@H](Cc1ccccc1)C(=O)N[C@H](C(=O)N[C@@H](CCCCNC(=O)CC[C@H](NC(=O)CC[C@H](NC(=O)CC[C@H](NC(=O)C1CCC(CNC(=O)CCCCCCCCCCCCCCCCCCC(=O)O)CC1)C(=O)O)C(=O)O)C(=O)O)C(=O)N[C@@H](Cc1c[nH]c2ccccc12)C(=O)N[C@@H](CC(C)C)C(=O)N[C@@H](CC(C)C)C(=O)N[C@@H](C)C(=O)N[C@@H](CCC(N)=O)C(=O)N[C@@H](CCCCN)C(=O)NCC(=O)O)C(C)C)[C@@H](C)CC (stereo partly drawn) [Compound 24, N{1}-acetyl,N{Epsilon-24}-[(4S)-4-carboxy-4-[[(4S)-4-carboxy-4-[[(4S)-4-carboxy-4-[[4-[(19-carboxynonadecanoylamino)methyl]cyclohexanecarbonyl]amino]butanoyl]-amino]butanoyl]amino]butanoyl]-[D-Tyr1,Nle14,Aib20,Lys24]-hGIP(1-31)] | 125
3 | CCCC[C@H](NC(=O)[C@H](C)NC(=O)[C@@H](NC(=O)[C@H](CO)NC(=O)[C@H](Cc1ccc(O)cc1)NC(=O)[C@H](CC(=O)O)NC(=O)[C@H](CO)NC(=O)[C@@H](NC(=O)[C@H](Cc1ccccc1)NC(=O)[C@@H](NC(=O)CNC(=O)[C@H](CCC(=O)O)NC(=O)[C@H](C)NC(=O)[C@@H](Cc1ccc(O)cc1)NC(C)=O)[C@@H](C)O)[C@@H](C)CC)[C@@H](C)CC)C(=O)N[C@@H](CC(=O)O)C(=O)N[C@@H](CCCCN)C(=O)N[C@H](C(=O)N[C@@H](Cc1c[nH]cn1)C(=O)N[C@@H](CCC(N)=O)C(=O)N[C@@H](CCC(N)=O)C(=O)N[C@@H](CC(=O)O)C(=O)N[C@@H](Cc1ccccc1)C(=O)N[C@H](C(=O)N[C@@H](CCCCNC(=O)CC[C@H](NC(=O)CC[C@H](NC(=O)CC[C@H](NC(=O)C1CCC(CNC(=O)CCCCCCCCCCCCCCCCCCC(=O)O)CC1)C(=O)O)C(=O)O)C(=O)O)C(=O)N[C@@H](Cc1c[nH]c2ccccc12)C(=O)N[C@@H](CC(C)C)C(=O)N[C@@H](CC(C)C)C(=O)N[C@@H](C)C(=O)N[C@@H](CCC(N)=O)C(=O)N[C@@H](CCCCN)C(=O)N1CCC[C@H]1C(N)=O)C(C)C)[C@@H](C)CC (stereo partly drawn) [Compound 29, N{1}-acetyl,N{Epsilon-24}-[(4S)-4-carboxy-4-[[(4S)-4-carboxy-4-[[(4S)-4-carboxy-4-[[4-[(19-carboxynonadecanoylamino)methyl]cyclohexanecarbonyl]amino]butanoyl]-amino]butanoyl]amino]butanoyl]-[D-Tyr1,Nle14,Lys24,Pro31]-hGIP(1-31) amide] | 119
